In publication PMC4019986, “Structural and biochemical characterization of the KLHL3–WNK kinase interaction important in blood pressure regulation” (Biochemical Journal, 2014) one finds Kd data, which are given here for one molecule.

By UniProt entry, the sequences of proteins in these tests, tags left out.
UniProt Q14145, whole entry: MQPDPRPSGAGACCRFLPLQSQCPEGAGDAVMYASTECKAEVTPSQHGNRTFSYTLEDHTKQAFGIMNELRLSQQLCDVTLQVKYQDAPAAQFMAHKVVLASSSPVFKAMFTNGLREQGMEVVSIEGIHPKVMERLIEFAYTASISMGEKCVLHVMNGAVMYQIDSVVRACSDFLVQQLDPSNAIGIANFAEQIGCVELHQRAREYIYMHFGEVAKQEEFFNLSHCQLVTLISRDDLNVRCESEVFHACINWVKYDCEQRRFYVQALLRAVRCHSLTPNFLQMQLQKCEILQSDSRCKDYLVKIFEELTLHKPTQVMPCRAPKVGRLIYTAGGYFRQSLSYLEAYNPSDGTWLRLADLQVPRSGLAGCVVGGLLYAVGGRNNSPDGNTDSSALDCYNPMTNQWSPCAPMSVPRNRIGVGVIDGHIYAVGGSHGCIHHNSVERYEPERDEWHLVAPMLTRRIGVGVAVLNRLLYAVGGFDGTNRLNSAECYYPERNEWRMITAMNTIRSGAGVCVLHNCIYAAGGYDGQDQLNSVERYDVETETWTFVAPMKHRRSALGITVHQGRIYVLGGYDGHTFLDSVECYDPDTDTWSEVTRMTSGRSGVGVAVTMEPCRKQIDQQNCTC

In this assay the target is T1, KEAP1 full-length protein (residues 1–624) (UniProt Q14145 1-624).
T1 construct: KEAP1, NM_203500.1, amplified from EST IMAGE 3163902, residues 1-624; NM_203500.1 is a human transcript as far as I recall; also called Kelch-like enoyl-CoA hydratase-associated protein 1; source: Sf21 cells, purified (ampicillin–Sepharose, TEV protease release, size-exclusion chromatography); not shown: DAC, N-terminal, cleaved
In words: fluorescence polarisation; Kelch protein titrated against 10 nM Lumio-Green-labelled peptide; 25°C; 50 mM Tris/HCl pH 7.5, 150 mM NaCl, 2 mM DTT; one-site specific binding with Hill slope; duplicates, at least 12 points per curve. The settings on record: both partners purified. Background: Polarisation of emitted light reports the rotation of a fluorescent probe.

B1: NRF2 degron peptide (NRF2 WT 74–84) (peptide)
peptide: LQLDEETGEFL
modifications: Lumio Green fluorophore on the N-terminal linker …
notes: nuclear factor-erythroid 2-related factor 2 (NRF2), degron motif, residues 74-84; also called NRF2 degron motif; source: synthetic peptide (GL Biochem)
Take B1: the dissociation constant (Kd) (in general, a measure of binding affinity in units of concentration) came out at 440 nM.
